Assays:
[1] = target: T1, Dopamine beta-hydroxylase (Bos taurus) (UniProt P15101); assay: Inhibitor dissociation constant vs. tyramine substrate against Dopamine beta hydroxylase at pH 4.5.
T1 sequence (whole entry): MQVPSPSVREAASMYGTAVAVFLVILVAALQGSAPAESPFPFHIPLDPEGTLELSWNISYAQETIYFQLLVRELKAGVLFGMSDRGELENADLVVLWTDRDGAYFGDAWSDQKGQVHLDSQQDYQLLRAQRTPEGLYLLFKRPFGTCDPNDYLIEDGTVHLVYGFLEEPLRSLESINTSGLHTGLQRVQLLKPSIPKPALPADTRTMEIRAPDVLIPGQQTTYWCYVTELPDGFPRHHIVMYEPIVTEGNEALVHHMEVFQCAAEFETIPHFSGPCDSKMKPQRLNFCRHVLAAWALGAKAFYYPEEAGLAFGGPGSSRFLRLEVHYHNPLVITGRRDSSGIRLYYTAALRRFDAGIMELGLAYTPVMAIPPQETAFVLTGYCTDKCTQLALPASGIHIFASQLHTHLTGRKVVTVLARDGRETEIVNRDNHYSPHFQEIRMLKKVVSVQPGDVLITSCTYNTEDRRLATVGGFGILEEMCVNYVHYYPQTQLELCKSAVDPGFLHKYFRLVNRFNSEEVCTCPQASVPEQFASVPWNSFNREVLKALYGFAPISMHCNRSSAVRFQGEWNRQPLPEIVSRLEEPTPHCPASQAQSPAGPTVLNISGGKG
In short: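 Homogeneous purified DBH with specific activity 25-42 units/mg, with tyramine as the varied substrate. The pH 4.5 condition is predominantly ordered: phenethylamine binds before oxygen. The pH 6.6 condition is random. Kis is from standard competitive/noncompetitive kinetic fits, reported as mean ± SEM.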

[2] = target: T1, Dopamine beta-hydroxylase (Bos taurus)
[3] = target: T1, Dopamine beta-hydroxylase (Bos taurus); assay: Inhibitor dissociation constant vs. tyramine substrate against Dopamine beta hydroxylase at pH 6.0
In short: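 Purified homogeneous DBH, specific activity 25-42 units/mg, assayed at pH 6.0 with tyramine as the varied substrate. Kis taken as slope inhibition constant from Cleland COMP/NONCOMP fits; mean ± SEM.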

[4] = target: T1, Dopamine beta-hydroxylase (Bos taurus); remark: listed apart in the source
[5] = target: T1, Dopamine beta-hydroxylase (Bos taurus); remark: listed apart in the source

## Oc1c(Cl)cc(Cn2cc[nH]c2=S)cc1Cl
[1]
  Kis: 0.018 µM

## Oc1ccc(Cn2cc[nH]c2=S)cc1F
[2]
  Kis: 0.045 µM

## S=c1[nH]ccn1Cc1cc(Cl)cc(Cl)c1
[1]
  Kis: 0.024 µM

## COc1ccc(Cn2cc[nH]c2=S)cc1
[3]
  Kis: 26 µM

## Oc1ccc(Cn2cc[nH]c2=S)cc1
[4]
  Kis: 0.088 µM

## S=c1[nH]ccn1Cc1ccc(Cl)cc1
[5]
  Kis: 2.74 µM

## Fc1ccc(Cn2cc[nH]c2=S)cc1
[3]
  Kis: 0.99 µM

From ChEMBL document CHEMBL1123691, “Multisubstrate inhibitors of dopamine beta-hydroxylase. 2. Structure-activity relationships at the phenethylamine binding site” (J Med Chem, 1987)
